# Earlier results in US20170000761A1, “PROTECTING TISSUE AND MITIGATING INJURY FROM CHEMICAL EXPOSURE” (published 2017).
smiles,measurement,value
O=c1c(-c2ccc(O)cc2)coc2cc(O)cc(O)c12,Solubility in several pharmaceutically acceptable solvents,low to virtually no solubility
